Test results: patent publication US5198426A

Amino acid sequences for entries named in this document (tags omitted). Residues count along the entry.
UniProt P00797, 67-406 limits assumed: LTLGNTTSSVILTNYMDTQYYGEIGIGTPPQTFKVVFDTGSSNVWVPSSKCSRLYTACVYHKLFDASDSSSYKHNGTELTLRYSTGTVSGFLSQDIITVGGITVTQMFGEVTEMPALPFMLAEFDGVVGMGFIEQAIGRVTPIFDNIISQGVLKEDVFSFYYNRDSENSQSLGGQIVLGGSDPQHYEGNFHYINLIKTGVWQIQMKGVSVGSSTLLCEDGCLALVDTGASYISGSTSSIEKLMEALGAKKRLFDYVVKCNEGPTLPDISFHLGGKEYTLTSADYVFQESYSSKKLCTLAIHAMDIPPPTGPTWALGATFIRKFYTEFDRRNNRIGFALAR

molecular target: renin (Homo sapiens, UniProt P00797); assay: in vitro renin inhibitory activity, radioimmunoassay for angiotensin I; details: renin incubated for two hours at 37° with substrate angiotensinogen; angiotensin I measured by radioimmunoassay

Compound	IC50 [µM]
CCC(O)CC(O)C(CC1CCCCC1)NC(=O)CNC(=O)[C@H](Cc1ccccc1)NS(=O)(=O)N1CCOCC1 (single isomer, unassigned) [drawing 46 (Fast isomer)]	> 0.1
C=CC[C@H](NC(=O)[C@H](Cc1ccccc1)NS(=O)(=O)N1CCNCC1)C(=O)NC(CC1CCCCC1)C(O)CC(O)CC (single isomer, unassigned)	0.00135
CCC(O)CC(O)C(CC(C)C)NC(=O)[C@H](Cc1c[nH]cn1)NC(=O)[C@H](Cc1ccccc1)NS(=O)(=O)N1CCOCC1 (stereo partly drawn)	0.018
CCC(O)CC(O)C(CC1CCCCC1)NC(=O)C(NC(=O)[C@H](Cc1ccccc1)NS(=O)(=O)N1CCOCC1)C(=O)OC (single isomer, unassigned) [drawing 49 (Fast isomer)]	0.0058
CCC(O)CC(O)C(CC1CCCCC1)NC(=O)CNC(=O)[C@H](Cc1ccccc1)NS(=O)(=O)N1CCOCC1 (single isomer, unassigned) [drawing 46 (Slow isomer)]	0.0438
CCN(C)CCC(O)CC(O)C(CC1CCCCC1)NC(=O)[C@H](Cc1c[nH]cn1)NC(=O)[C@H](Cc1ccccc1)NS(=O)(=O)N1CCOCC1 (single isomer, unassigned) [drawing 40 (Slow isomer)]	0.22
C=CC[C@H](NC(=O)[C@H](Cc1ccccc1)NS(=O)(=O)N1CCN(C(=O)OC(C)(C)C)CC1)C(=O)NC(CC1CCCCC1)C(O)CC(O)CC (single isomer, unassigned)	0.00047
COC(=O)C(NC(=O)[C@H](Cc1ccccc1)NS(=O)(=O)N1CCOCC1)C(=O)NC(CC1CCCCC1)C(O)CC(O)CCSC(C)C (single isomer, unassigned) [drawing 51 (Fast isomer)]	0.017
CCN(C)CCC(O)CC(O)C(CC1CCCCC1)NC(=O)[C@H](Cc1c[nH]cn1)NC(=O)[C@H](Cc1ccccc1)NS(=O)(=O)N1CCOCC1 (single isomer, unassigned) [drawing 40 (Fast isomer)]	0.28
C=CC(=O)CC(O)C(CC1CCCCC1)NC(=O)C(NC(=O)[C@H](Cc1ccccc1)NS(=O)(=O)N1CCOCC1)C(=O)OC (stereo partly drawn)	0.0364
C=CC[C@H](NC(=O)[C@H](Cc1ccccc1)NS(=O)(=O)N1CCOCC1)C(=O)NC(CC1CCCCC1)C(O)CC(O)C(C)C (single isomer, unassigned)	0.00026
C=CC(O)CC(O)C(CC1CCCCC1)NC(=O)C(NC(=O)[C@H](Cc1ccccc1)NS(=O)(=O)N1CCOCC1)C(=O)OC (single isomer, unassigned)	0.0021
CCC(O)CC(O)C(CC1CCCCC1)NC(=O)C(NC(=O)[C@H](Cc1ccccc1)NS(=O)(=O)N1CCOCC1)C(=O)OC (single isomer, unassigned) [drawing 49 (Slow isomer)]	0.00075
COC(=O)C(NC(=O)[C@H](Cc1ccccc1)NS(=O)(=O)N1CCOCC1)C(=O)NC(CC1CCCCC1)C(O)CC(O)CCSC(C)C (single isomer, unassigned) [drawing 51 (Slow isomer)]	0.00495

same assay, conditions: renin incubated for two hours at 37° with substrate angiotensinogen; angiotensin I measured by radioimmunoassay; tested form: iodide

Compound	IC50 [µM]
CC[N+](C)(C)CCC(O)CC(O)C(CC1CCCCC1)NC(=O)[C@H](Cc1c[nH]cn1)NC(=O)[C@H](Cc1ccccc1)NS(=O)(=O)N1CCOCC1 (stereo partly drawn)	0.5
